# Measured values published in patent publication EP1285920A1, “C10 Ester sustituted taxanes as antitumor agents” (Florida State University Research Foundation, Inc., priority 2001, dated 2003).
# Columns and labels:
# [1] = tested on: HCT116 carcinoma
# Method: Antitumor compounds were formulated for an i.v. dosing regime and were prepared in the following vehicle: 5% ethanol, 5% Cremophor and 90% isotonic saline.
# (§1) The antitumor compounds were given intravenously in a single maximum tolerated dose (MTD) appropriate for each compound. […] The MTDs for the antitumor compounds were calculated from earlier single dose data for mice receiving i.v. administration of these compounds. All vehicle control animals in the split dosing regimes were dosed twice intravenously with half of the total volume being given separated by one hour. The study was terminated on Day 60.
# A complete response is obtained if the tumor is not palpable at the end of the study.
# [2] = tested on: A375 melanoma; conditions: for antitumor activity: i.v. qd x 1; for toxic deaths: i.v. qd x 1, six mice per group
# Method: Dosing was initiated on Day 1. […] Taxotere was given i.v. on a qd x 1 schedule at a dose of 70 mg/kg. […] The study was terminated on Day 60. Treatment groups are detailed in Table 9.
# [3] = tested on: VM46 colon carcinoma; conditions: for tolerability: i.v. qd x 1
# Method: Dosing was initiated on Day 1. […] Taxotere was given i.v. at a dose of 70 mg/kg on a qd x 1 schedule.
# [4] = tested on: MX-1 carcinoma; conditions: for antitumor activity / tumor response: i.v. qd x 1, Day 60
# Method: Thirteen antitumor compounds were formulated for an i.v. dosing regime (single i.v. bolus, qd x 1 schedule) prepared in the following vehicle: 5% ethanol, 5% Cremophor and 90% isotonic saline.
# as §1, with “half” for “half of”
# A complete response is obtained if the tumor is not palpable at the end of the study. […]
# [5] = tested on: A2780 ovarian carcinoma; conditions: for antitumor activity / toxic deaths: A2780, i.v. qd x 1; for toxic deaths: five mice per group
# Method: Dosing was initiated on Day 1. […] Taxotere was given i.v. on a qd x 1 schedule at a dose of 70 mg/kg. […] The study was terminated on Day 60. Treatment groups are detailed in Table 7.
# [6] = tested on: DU145 prostate carcinoma
# Excerpt: Dosing was initiated on Day 1. […] Treatment groups are detailed in Table 5.
# [7] = tested on: Panc-1 pancreatic carcinoma; test: In vivo evaluation against Panc-1 human pancreatic carcinoma (Example 17); conditions: Panc-1 (Example 17); 0854 76.9 mg/kg i.v.
# [8] = tested on: Panc-1 pancreatic carcinoma; conditions: Panc-1 (Example 18); i.v. qd x 1; six mice per group
# [9] = i.v. qd x 1, five mice per group
# [10] = i.v. qd x 1, six mice per group
smiles,measurement,setting,value
CCC(=O)O[C@H]1C(=O)[C@@]2(C)[C@H]([C@H](OC(=O)c3ccccc3)[C@]3(O)C[C@H](OC(=O)[C@H](O)[C@@H](NC(=O)c4ccccc4)c4ccoc4)C(C)=C1C3(C)C)[C@]1(OC(C)=O)CO[C@@H]1C[C@@H]2O [Compound 0670],complete responses,[1]; [9],Two
same,partial response,[1]; [9],one
same,antitumor activity,[2],not active
same,tolerability,[3],well-tolerated
same,toxic deaths,[3]; [10],no toxic deaths
CCC(=O)OC1C(=O)C2(C)C(O)CC3OCC3(OC(C)=O)C2C(OC(=O)c2ccccc2)C2(O)CC(OC(=O)C(O)C(NC(=O)c3ccccc3)c3cccs3)C(C)=C1C2(C)C (centres unmarked) [Compound 0687],antitumor activity / tumor response,[4],complete and durable tumor regressions in all the treated mice
same,antitumor activity,[5],"did not cause any complete responses, partial responses, or cases of stable disease"
CCC(=O)O[C@H]1C(=O)[C@@]2(C)[C@H]([C@H](OC(=O)c3ccccc3)[C@]3(O)C[C@H](OC(=O)[C@H](O)[C@@H](NC(=O)c4ccccc4)C4CC4)C(C)=C1C3(C)C)[C@]1(OC(C)=O)CO[C@@H]1C[C@@H]2O [Compound 0706],tolerability,[6]; i.v. qd x 1,well-tolerated
same,stable disease,[6]; [9],one
same,antitumor activity,[2],improved survival
same,tolerability,[3],well-tolerated
same,partial responses,"[3]; i.v. qd x 1 (compounds estimated MTD; Taxol 24 mg/kg split), six mice per group, ended Day 64",two
same,complete response,[3]; [10],one
same,toxic deaths,[3]; [10],no toxic deaths
same,antitumor activity / tumor response,[4],complete and durable tumor regressions in all the treated mice
same,antitumor activity,[5],"did not cause any complete responses, partial responses, or cases of stable disease"
CC(=O)O[C@@]12CO[C@@H]1C[C@H](O)[C@@]1(C)C(=O)[C@H](OC(=O)C3CC3)C3=C(C)[C@@H](OC(=O)[C@H](O)[C@@H](NC(=O)OC(C)(C)C)c4cccs4)C[C@@](O)([C@@H](OC(=O)c4ccccc4)[C@H]21)C3(C)C [Compound 0854],toxic deaths / toxic lethalities,[6]; [9],at least two
same,toxic deaths,[2],at least three
same,toxicity,[7],highly toxic
same,tolerability,[3],Acceptable toxicity
same,toxic deaths,[3]; [10],not more than one
same,toxic deaths / toxic lethalities,[8],all animals receiving this agent died
CCCC(=O)O[C@H]1C(=O)[C@@]2(C)[C@H]([C@H](OC(=O)c3ccccc3)[C@]3(O)C[C@H](OC(=O)[C@H](O)[C@H](C=C(C)C)NC(=O)OC(C)(C)C)C(C)=C1C3(C)C)[C@]1(OC(C)=O)CO[C@@H]1C[C@@H]2O [Compound 0947],toxic deaths,[4]; [10],Two
same,toxic deaths,[5],one
CCCC(=O)O[C@H]1C(=O)[C@@]2(C)[C@H]([C@H](OC(=O)c3ccccc3)[C@]3(O)C[C@H](OC(=O)[C@H](O)[C@@H](NC(=O)OC(C)(C)C)c4ccco4)C(C)=C1C3(C)C)[C@]1(OC(C)=O)CO[C@@H]1C[C@@H]2O [Compound 0983],toxic deaths,"[1]; single i.v. MTD, five mice per group",two
same,toxic deaths,[3]; [10],three
same,antitumor activity / tumor response,[4],complete and durable tumor regressions in all the treated mice
same,toxic deaths,[5],five
same,tolerability / toxicity,"[5]; mouse, in vivo, iv",excessive toxicity
CCCC(=O)O[C@H]1C(=O)[C@@]2(C)[C@H]([C@H](OC(=O)c3ccccc3)[C@]3(O)C[C@H](OC(=O)[C@H](O)[C@@H](NC(=O)OC(C)(C)C)c4ccsc4)C(C)=C1C3(C)C)[C@]1(OC(C)=O)CO[C@@H]1C[C@@H]2O [Compound 1011],toxic deaths / toxic lethalities,[6]; [9],at least two
same,toxic deaths,[2],at least three
same,antitumor activity / tumor response,[4],complete and durable tumor regressions in all the treated mice
